Tests used:
[1] = target: T1, r-SgAChE1 (Schizaphis graminum acetylcholinesterase-1) (Schizaphis graminum, UniProt Q9BMJ1); test: Determination of IC50 for inhibition of purified r-SgAChE1; type: biochemical; conditions: IC50, 5 min incubation, room temperature
[2] = target: T1, r-SgAChE1 (Schizaphis graminum acetylcholinesterase-1); test: Inhibitory kinetic constants; type: biochemical; conditions: ATC substrate, room temperature

By UniProt entry, the sequences of proteins in these tests, tags left out. Residues count along the entry.
UniProt Q9BMJ1, 98-659: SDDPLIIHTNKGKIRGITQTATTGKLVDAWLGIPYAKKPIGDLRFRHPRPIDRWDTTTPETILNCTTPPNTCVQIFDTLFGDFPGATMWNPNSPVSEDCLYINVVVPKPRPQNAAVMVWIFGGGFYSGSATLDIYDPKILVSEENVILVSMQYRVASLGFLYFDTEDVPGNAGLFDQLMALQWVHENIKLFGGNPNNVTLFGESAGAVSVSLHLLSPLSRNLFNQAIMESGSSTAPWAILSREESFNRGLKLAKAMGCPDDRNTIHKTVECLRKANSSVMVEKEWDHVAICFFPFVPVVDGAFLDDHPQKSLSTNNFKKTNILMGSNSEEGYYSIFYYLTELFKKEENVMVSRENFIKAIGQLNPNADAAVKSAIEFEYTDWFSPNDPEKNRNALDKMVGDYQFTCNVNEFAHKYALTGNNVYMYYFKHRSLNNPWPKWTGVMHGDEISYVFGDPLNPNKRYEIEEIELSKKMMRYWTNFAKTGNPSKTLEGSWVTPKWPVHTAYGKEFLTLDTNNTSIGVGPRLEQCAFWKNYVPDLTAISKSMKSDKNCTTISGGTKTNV

CCOP(=O)(OCC)Oc1ccc([N+](=O)[O-])cc1 [Paraoxon]
IC50 [1]: 0.016 µM | Kd ([2]; Kd (dissociation constant)): 3.12 ± 0.34 µM | Kd ([2]; Kd (dissociation equilibrium constant)): 3.1 ± 0.3 µM

From publication PMC9301657 (Journal of biochemical and molecular toxicology, 2010)
